The list shows a part of the results. Only a part of the results of these assays is listed, not drawn at random. Activity calls are given as the source filed them. No cut-off for these calls is given here.

For one compound, Potency results are on record in ChEMBL document CHEMBL1201862, “PubChem BioAssay data set” (2004).

The assay in a line: qHTS Assay for the Inhibitors of L3MBTL1: Hit Validation in AlphaScreen Counterscreen. The class given is functional. In general terms: qHTS replaces the single test concentration by a dilution series.

As to `CCc1nc2c([nH]1)c1no[n+]([O-])c1c1no[n+]([O-])c21`, the Potency entry was “inactive”.
